# Values quoted from earlier work in paper PMC4837544, “Differential kinetic profiles and metabolism of primaquine enantiomers by human hepatocytes” (Malaria Journal, 2016).
# System: recombinant human CYP2D6
# Parameters: method as in PMID 25518709
# Settings: CYP2D6-catalyzed metabolism ref 12; cited from earlier work
substance,measurement,value
"Primaquine-5,6-orthoquinone",abundance from (+)-PQ metabolism compared to (−)-PQ,twice as abundant
